According to ChEMBL document CHEMBL1121970, “Potential radiosensitizing agents. 5. 2-Substituted benzimidazole derivatives” (1982):

Legend:
CHO = assay: Radiosensitizing activity against chinese hamster cells was determined in the presence of the sensitizer under nitrogen at a concentration of 0.5 mM; settings: Cricetulus griseus
[1] = Sensitizer enhancement ratio(SER) was determined; format: functional

O=[N+]([O-])c1ccc2[nH]c([N+](=O)[O-])nc2c1
Survivals (CHO): 4.4% | SER [1]: 2.1
